Patent publication US20230084354A1, “NUTRACEUTICAL EXTRACTS OF HIPPOPHAE RHAMNOIDES AND TERMINALIA CHEBULA AND USES THEREOF” (Biomics, LLC, priority 2020, published 2023)

Tested on: Human peripheral blood mononuclear cell (PBMC) cultures
Experiment: CD69 and CD25 expression in human PBMC cultures, direct effects
Assay type: cell-based
Conditions: direct effect, 24 hours, vs untreated control; extract at the highest dose
Procedure: Next, the immune-modulating effects of the extract were tested. Human peripheral blood mononuclear cell (PBMC) cultures were used for this testing. A set of cultures were left untreated as negative control cultures for immune activation. Triplicate sets of cultures were treated with serial dilutions of the test product. The inflammatory bacterial lipopolysaccharide LPS from E. coli was used as a positive control for activation. The cultures were incubated for 24 hours, after which the cells and the culture supernatants were harvested and used to monitor the reactions in each culture. The cells were used for immunostaining and flow cytometry, specifically to evaluate the induction of two activation markers, CD69 and CD25, on NK cells, NKT cells, T lymphocytes, and monocytes/macrophages.

For “IL-2: control for immune activation in PBMC cultures”, the “CD69 expression on NK cells” value was “increase”.
